Assay results: US20230406906A1, “SERPIN PEPTIDES AND METHODS OF USING THE SAME” (SERPIN PHARMA, LLC, priority 2022, published 2023)

Tests used:
[1] = tested on: primary adult rat DRG neurons; assay: Neurite outgrowth and survival in primary cultures of adult DRG neurons; format: cell-based
Protocol: Neurite outgrowth in primary cultures of adult DRG neurons: Primary DRGs neurons were isolated from adult male Sprague Dawley rats and cultured as previously described for mice with modifications.^53 The DRGs were stripped of their roots and collected in Hanks Buffered Salt Solution (HBSS) on ice. DRGs were enzymatically digested and approximately 4000 DRG neurons were plated in each well of a 12-well tissue culture plate (Thermo Fisher Scientific, Waltham, MA, USA). All DRG neurons were cultured at 37° C. in 5% CO2 for 54 h in DMEM/F12 containing 2% B27 and 1% FBS with vehicle or S[…] (0-500 ng/ml) added every 24 h. Primary cultured DRG neurons were imaged by phase contrast and the viability of cells was assessed by Trypan blue. […] DRG neurons were imaged at 20× and 40× manually, and the longest neurite length per cell was measured in 11 images from multiple wells and separate experiments. […] Quantification was performed in a blinded manner. For all neurite outgrowth measurements, at least 6 individual experiments were performed in duplicate.

HaCat cells = assay: CellTiter-Glo cell viability of Poly IC induced HaCat cells; format: cell-based, human; conditions: Poly IC 50 μg/ml 24 hours, 100 μg/ml pretreatment
Protocol: Cells were pretreated with either vehicle or SP163M (100 μg/ml). TSLP was measured in the supernatant via ELISA (p=0.0045 vs. vehicle treated Poly IC induced cells). FIG. 10B: HaCat cells treated as in FIG. 10A were analyzed via the CellTiter-Glo® Luminescent Cell Viability Assay by Promega. The percent change from untreated (no Poly IC) cells were compared between SP163M vs. vehicle treated poly IC induced control (p=0.0068). FIG. 10C: HaCat cells were insulted with TNFα and immunoblotted for phospho-IkBa (Ser32). GAPDH served as a loading control and signal normalization.
In this model of dermal inflammation, SP163M decreased a key cytokine (TSLP) that controls allergic responses, and protected cells from death.

TLR4 = assay: Immunoblot of injured sciatic nerve two days after PNL, TLR4; format: in vivo, mice; conditions: 2 μg/g
Protocol: (§1) Neuropathic pain model: Mice (n=30) were randomly assigned to two different groups: SP163M (2 μg/g; s.c. 100 μl) and vehicle (H20 s.c. 100 μl). Mice were treated 1 h prior to partial nerve ligation (PNL) and then daily at least 1 h prior to behavior testing for 2 weeks. PNL studies were performed as previously disclosed^59 and adapted for mice.^57 Male mice were anesthetized with 3% isoflurane (Vetone, USA) in 1.5 L/min oxygen (Praxair, USA) and maintained with 2.5% isoflurane. An incision was made along the long axis of the femur. […] Filaments were presented in a consecutive fashion either ascending or descending using the up-down method as previously disclosed^60 and modified for mice.^57,61 The filament that caused paw withdrawal 50% of the time (the 50% PWT) was determined. […]
(§2) Immunoblots of sciatic nerve: Sciatic nerves were harvested 2 days after PNL to identify early molecular and cellular changes. […] Nerves were lysed in RIPA buffer and equal amounts of protein (20 μg) from nerves lysates, as determined by BCA Protein Assay (Bio-Rad, Hercules, CA, USA), were subjected to 10% SDS-PAGE and electro-transferred to nitrocellulose membranes. […] Primary antibodies were detected with HRP-conjugated species-specific secondary antibodies (Cell Signaling Technology, Danvers, MA, USA; cat #7076S or 4S; 1:5000). […]

CD11b = assay: Immunoblot of injured sciatic nerve two days after PNL, CD11b; format: in vivo, mice; conditions: 2 μg/g, vs vehicle
Protocol: as §1, §2

C57BL/6J mice = assay: Neuropathic pain model, partial nerve ligation (PNL), tactile allodynia (von Frey); format: in vivo
Protocol: as §1, with “femur. The sciatic nerve was exposed at mid-thigh level by separating the biceps femoris and the gluteus superficialis and then carefully cleared of surrounding connective tissue. A 9-0 nylon suture (Ethicon, Inc., Somerville, NJ, USA) was inserted into the nerve and ligated so that the one-third to one-half of the nerve was included. The muscle and skin layers were closed using Reflex7 7 mm stainless steel wound clips (CellPoint Scientific, Inc., Gaithersburg, MD, USA). For behavior testing, mice were acclimated, and baseline tested for one week prior to PNL.” for “femur.”

Balb/C mice = assay: Eosinophilic esophagitis model using A. alternata as allergen; format: in vivo; conditions: twice weekly over 4 weeks; vs vehicle and vs A1AT at a higher dose
Description: Balb/C mice were repeatedly challenged with a series of the allergen A. alternata over 4 weeks. A. alternata is a common airborne mold associated with eosinophilic inflammation and a variety of allergic diseases, such as rhinitis, asthma and dermatitis, and is an established model that induces allergic reaction at the esophagus. In this model, the allergen challenges lead to an increase in esophageal eosinophilia. SP163M, A1AT or vehicle (control) was given twice weekly over the 4-week period for 8 total treatments. At the end of the study, esophageal sections were stained for the detection of MBP (eosinophilic marker) and quantitated per high power field.

[2] = Phase I and Phase IIa clinical trials; format: in vivo; conditions: Phase I and ongoing Phase IIa clinical trials

CCCC[C@H](NC(=O)[C@H](CC(C)C)NC(=O)[C@H](Cc1ccccc1)NC(=O)[C@@H](NC(=O)[C@H](Cc1ccccc1)NC(=O)[C@@H]1CCCN1C(=O)[C@H](CCCCN)NC(=O)[C@H](CC(N)=O)NC(=O)[C@H](Cc1ccccc1)NC(=O)[C@H](CCCCN)NC(=O)[C@@H](NC(C)=O)C(C)C)C(C)C)C(=O)N[C@H](C(=O)N[C@@H](CCC(=O)O)C(=O)N[C@@H](CCC(N)=O)C(=O)N[C@@H](CC(N)=O)C(=O)N[C@H](C(=O)N[C@@H](CCCCN)C(N)=O)[C@@H](C)O)[C@@H](C)CC [SP163M, Ac-VKFNKPFVFLNIeIEQNTK-NH2]
maximum neurite length (βIII-Tubulin immunofluorescence) ([1]; 240 nM, 54 h): significantly increased maximum neurite length compared to controls
neuronal survival and neurite sprouting (phase contrast) ([1]; within 48 h, vs untreated controls): induced greater neuronal survival and neurite sprouting compared to untreated controls
cell viability (HaCat cells): an increase in cell viability
TLR4 upregulation in injured sciatic nerve (densitometry) (TLR4): completely blocked the upregulation of TLR4
reduction of CD11b levels in injured sciatic nerve (densitometry) (CD11b): 10 fold
development of mechanical hypersensitivity (tactile allodynia, PWT) (C57BL/6J mice; 2 μg/g s.c. 1 h before PNL, then daily for two weeks): did not develop mechanical hypersensitivity
day post injury up to which anti-allodynic effects were sustained (C57BL/6J mice; 2 μg/g s.c. daily): 9 days
number of eosinophils infiltrated to the esophagus (MBP, per high power field) (Balb/C mice): decreased the number of eosinophils that infiltrated to the esophagus
safety and tolerability [2]: safe and well tolerated
